# Binding of CDR-mutated scFvs to a peptide of the spike HR2 region

Data: MIT Lincoln Laboratory AlphaSeq set, Li et al. 2023, doi:10.1038/s41467-023-39022-2, as distributed in FLAb.

Antigen: PDVDLGDISGINAS, a 14-residue peptide of the SARS-CoV-2 spike HR2 region.

Ab-14 is the parent antibody, in scFv form: VH, then a (GGGGS)3 linker, then VL. The heavy chain is unchanged in all variants.
VH: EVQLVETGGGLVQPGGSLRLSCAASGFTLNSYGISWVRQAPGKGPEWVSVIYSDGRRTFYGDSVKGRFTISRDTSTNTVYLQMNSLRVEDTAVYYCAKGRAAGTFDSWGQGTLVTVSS
VL: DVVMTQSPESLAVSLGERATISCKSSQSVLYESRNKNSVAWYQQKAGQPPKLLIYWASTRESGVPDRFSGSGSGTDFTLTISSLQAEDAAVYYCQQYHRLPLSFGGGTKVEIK

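The parent was found by panning a naive human phage display library on the peptide. Designed CDR sequences, proposed from the first random library and measured here. Their group label is 14L_Ctrl (Ctrl: baseline library sampled from a position-specific scoring matrix, with some repeated check sequences). In AlphaSeq, yeast of one mating type display the scFv and yeast of the other type display the target. Pairs that bind mate more often; barcode pairs of the diploids are counted by sequencing. The ratio of observed to expected reads was calibrated, replicate by replicate, on BCL2-family standards whose Kd was known from biolayer interferometry. Each pool was mated in six replicate cultures.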

Positions count from residue 1 of the parent VL; Q27S puts S in place of Q. The read-out is the apparent dissociation constant on a log10 scale (nM): the lower, the stronger. Averages over replicates are reported, and they cover detected replicates only. "nd" means that the variant was in the library but no mating with the target was seen in that replicate; the authors take this as a sign of poor binding, and no number exists. Three control strains display no target. For all light chain designs, 4% of the pairings with them gave a signal, with a median of 2.64 and one signal in twenty below 1.59, so weak values seen in few replicates may be background. For each scFv, signals with the empty controls are counted beside the result, with their mean in brackets. The range of this assay differs from that of the first round, and the authors advise against merging the two. The authors averaged sequences with at least three values out of six and counted those with two or fewer as poor binders.

| changes | replicates, log10 nM | log10 Kd (nM), mean | signal with controls |
|---|---|---|---|
| Q27S S33E S58H E61N | nd nd nd 2.13 nd nd | 2.13 | 0/18 |
| P101V S103K | nd nd nd nd nd nd | nd | 0/18 |
| S26T Q27G R34N T59R H98N | 2.06 1.83 2.33 1.26 2.89 2.81 | 2.20 | 0/18 |
| Q27D E61S S103L | nd nd nd nd nd nd | nd | 0/18 |
| L30P Y97H | nd nd nd nd nd nd | nd | 0/18 |
| S25V V29H V39L W56H | 0.23 -0.02 0.41 0.36 0.44 0.60 | 0.34 | 1/18 (3.89) |
| S26D V29Y N35E | 2.10 1.36 1.99 1.77 nd nd | 1.81 | 0/18 |
| Y31E Q96N | nd nd 0.59 nd nd 1.58 | 1.09 | 0/18 |
| Y31N E32I W56G E61V L100K | nd nd nd nd nd nd | nd | 0/18 |
| S33R R34V R99Y | nd nd nd nd nd nd | nd | 0/18 |
| S28G V29G R34L T59V R99V S103T | 1.75 1.21 1.67 1.80 2.46 1.42 | 1.72 | 1/18 (1.75) |
| V29L H98F | 1.60 1.19 1.47 1.67 2.05 0.86 | 1.47 | 0/18 |
| S28Y L102T | nd nd nd nd nd nd | nd | 0/18 |
| Q27E L30G R34M W56E E61N | 0.65 0.51 0.84 0.71 0.49 0.57 | 0.63 | 1/18 (3.18) |
| S25L A57C | nd nd 1.97 nd 2.51 nd | 2.24 | 2/18 (2.16) |
| S25P N35A W56G R60P | 1.03 0.64 0.72 1.60 1.25 1.59 | 1.14 | 0/18 |
| S26D K36G T59E | nd nd nd nd nd nd | nd | 0/18 |
| Q27H L30D Y31L W56A P101E | nd 2.55 nd nd nd nd | 2.55 | 0/18 |
| V29D Y31D R34K K36D N37Y | 0.98 1.61 1.76 1.80 1.30 1.58 | 1.50 | 1/18 (2.18) |
| S33G W56A T59N L102N | nd nd nd nd nd nd | nd | 1/18 (2.24) |
| S26T S62A | 2.17 1.68 nd 2.29 2.57 nd | 2.18 | 1/18 (2.02) |
| R34H | 2.04 2.20 1.89 1.26 2.09 1.97 | 1.91 | 2/18 (2.67) |
| L30T K36R S103A | nd nd nd nd nd 2.31 | 2.31 | 0/18 |
| S25Q S28L W56K Y97I L100M | nd nd nd nd nd nd | nd | 1/18 (1.68) |
| S25Y S28P W56A T59L E61F R99C | 1.83 1.80 1.43 1.59 2.56 3.75 | 2.16 | 0/18 |
| S25Y L30V K36Q W56Q T59V S103T | 0.18 -0.02 0.06 -0.61 0.06 -0.24 | -0.09 | 0/18 |
| V29I K36A Q95F H98Q | 1.28 2.05 1.68 1.38 1.22 1.70 | 1.55 | 4/18 (3.03) |
| S25I R34T | 1.19 0.75 0.90 0.97 0.73 1.01 | 0.92 | 3/18 (2.18) |
| Y31R R99V P101H L102C | nd nd nd nd nd nd | nd | 0/18 |
| S25V S26D E32Y R34L W56A T59L H98S | 0.25 0.42 0.37 0.09 -0.08 0.19 | 0.21 | 1/18 (1.87) |
| S25T L30F R34K T59C E61W R99D | nd 2.14 3.39 nd nd nd | 2.77 | 0/18 |
| V29C W56R | 1.93 3.28 1.32 1.14 0.78 1.44 | 1.65 | 2/18 (2.29) |
| S25C Y31D S33Y R34D E61T | 0.62 1.11 0.73 0.54 1.26 1.79 | 1.01 | 3/18 (2.38) |
| Y97P H98E | nd nd nd nd nd nd | nd | 0/18 |
| K36G E61N | 1.58 2.59 nd 2.39 1.80 2.97 | 2.26 | 0/18 |
| E61L H98D | 1.89 1.89 1.81 1.13 2.21 2.82 | 1.96 | 0/18 |
| S25H R99C | nd nd nd nd nd nd | nd | 0/18 |
| R34F K36G Y97D | nd nd nd nd nd nd | nd | 0/18 |
| V29D E61C | 1.44 2.36 2.28 3.18 nd nd | 2.31 | 0/18 |
| V29L Y31D L102R S103I | 0.76 1.14 1.13 0.98 1.07 1.02 | 1.02 | 0/18 |
| L30W S103N | nd 1.87 nd 3.03 nd nd | 2.45 | 0/18 |
| S25T N35R W56G Q95F | nd nd nd nd 2.21 nd | 2.21 | 0/18 |
| S25V S26I E61T | nd nd nd 1.67 2.05 2.83 | 2.18 | 0/18 |
| L30W S33M S103A | nd nd 2.37 0.97 2.03 1.99 | 1.84 | 0/18 |
| K24Q V29Q S62T Q96S | nd nd nd nd nd nd | nd | 0/18 |
| S62V P101V | 1.34 0.94 0.58 -0.02 0.10 0.34 | 0.55 | 0/18 |
| V29K Y31Q W56H | 1.73 1.10 0.73 0.82 0.80 0.63 | 0.97 | 0/18 |
| R34D N37Q W56N | 0.47 0.53 0.31 -0.13 0.39 -0.04 | 0.26 | 0/18 |
| S25C L100W | nd nd 3.80 1.86 nd 2.44 | 2.70 | 1/18 (1.64) |
| Y31I K36E | 1.91 1.81 nd 2.08 2.42 nd | 2.05 | 0/18 |